The text below walks through data of patent US20090068110A1, “ANTIBODIES TO INSULIN-LIKE GROWTH FACTOR RECEPTOR” (Genentech, Inc., priority 2006, published 2009).

For the assay, the system named is BT474 cells. In words: in vitro ADCC assay, BT474 target cells. The conditions noted are these: BT-474 target cells, PBMC effectors, up to 100 μg/mL. The format is cell-based, human. The procedure: Blood from normal volunteers was drawn into heparinized syringes, mixed with an equal volume of Hanks' Balanced Salt Solution (HBSS), layered onto LSM™ lymphocyte separation medium (Mediatech, Inc.) and centrifuged at 400×g for 20 minutes. Peripheral blood mononuclear cells (PBMC) at the interface were harvested, washed in HBSS, and resuspended in RPMI 1640™ medium containing 0.1% BSA, 2 mM L-glutamine, 10 mM HEPES, and […] GENTAMICIN™ antibiotic.
SK-N-AS human neuroblastoma cells and BT474 human breast cancer cells were incubated with serially diluted 10H5 and HERCEPTIN® trastuzumab, respectively, in round-bottomed 96-well plates for 30 minutes at 37° C. PBMCs were subsequently added and the incubation was continued for four more hours at 37° C. After four hours, the plates were centrifuged and the supernatants were harvested. Cytotoxicity was measured by lactate dehydrogenase activity released by the supernatants, as determined according to the CYTOTOX-ONE HOMOGENEOUS MEMBRANE INTEGRITY ASSAY PROCEDURE™ technique (Promega).
To determine the percentage of cell-mediated cytotoxicity, the average absorbance was calculated and the background was subtracted as follows: […]

Turning to “HERCEPTIN® trastuzumab: anti-HER2 antibody used as positive control in ADCC assay”, the ADCC activity entry is given as “detectable ADCC”.
